Values quoted from earlier work as cited in US20230340136A1, “TREATMENT OF CLL” (NOVARTIS AG, priority 2020, published 2023).

Amino acid sequences for entries named in this document (tags omitted). A change or cut given only in a name is not applied to a line headed by its entry.
UniProt Q06187: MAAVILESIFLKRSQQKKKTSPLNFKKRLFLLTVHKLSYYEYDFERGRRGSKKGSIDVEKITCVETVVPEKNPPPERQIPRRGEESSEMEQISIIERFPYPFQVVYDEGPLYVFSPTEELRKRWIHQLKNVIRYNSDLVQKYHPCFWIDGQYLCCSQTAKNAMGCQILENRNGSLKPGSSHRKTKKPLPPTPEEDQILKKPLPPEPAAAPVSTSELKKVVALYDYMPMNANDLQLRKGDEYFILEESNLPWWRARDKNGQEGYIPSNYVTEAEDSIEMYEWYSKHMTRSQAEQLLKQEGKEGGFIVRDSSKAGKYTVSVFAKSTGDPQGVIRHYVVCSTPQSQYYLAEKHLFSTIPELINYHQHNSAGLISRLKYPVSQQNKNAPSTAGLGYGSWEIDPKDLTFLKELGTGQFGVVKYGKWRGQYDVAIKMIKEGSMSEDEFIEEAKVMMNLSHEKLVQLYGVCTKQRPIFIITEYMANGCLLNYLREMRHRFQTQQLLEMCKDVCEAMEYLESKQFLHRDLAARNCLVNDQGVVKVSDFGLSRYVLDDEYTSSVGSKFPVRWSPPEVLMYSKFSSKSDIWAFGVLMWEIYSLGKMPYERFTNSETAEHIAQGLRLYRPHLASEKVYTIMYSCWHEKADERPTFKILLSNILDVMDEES

Target: BTK (Homo sapiens, UniProt Q06187)
Conditions: cited from earlier work

C=CC(=O)Nc1cccc(Nc2nc(Nc3ccc(OCCOC)cc3)ncc2F)c1 [spebrutinib]
IC50: < 0.5 nM
